Target: BLT1 (Homo sapiens, UniProt Q15722)
Test: IP-One (IP-1 accumulation, HTRF) off-target assay in CHO-K1 cells stably overexpressing BLT1 + GNA15/16
Details: CHO-K1 cells overexpressing BLT1 + GNA15/16, LTB4 as reference agonist

Sequences of proteins named here, by UniProt entry; tags and fusion partners are left off. A change or cut given only in a name is not applied to a line headed by its entry.
UniProt Q15722: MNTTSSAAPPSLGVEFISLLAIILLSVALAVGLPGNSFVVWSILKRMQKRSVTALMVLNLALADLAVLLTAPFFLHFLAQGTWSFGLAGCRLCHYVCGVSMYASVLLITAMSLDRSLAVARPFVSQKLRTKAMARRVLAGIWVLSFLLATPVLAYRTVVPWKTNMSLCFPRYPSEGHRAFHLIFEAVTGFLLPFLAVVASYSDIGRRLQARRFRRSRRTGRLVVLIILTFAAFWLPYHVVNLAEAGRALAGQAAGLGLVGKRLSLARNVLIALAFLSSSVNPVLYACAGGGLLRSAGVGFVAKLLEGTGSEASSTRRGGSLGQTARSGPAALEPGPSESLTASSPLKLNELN

1-(2-(2-(1H-Tetrazol-5-yl)phenyl)-2,7-diazaspiro[3.5]nonan-7-yl)pentan-1-one [Compound 18]
off-target test on BLT1: Inactive
